Data as given in ChEMBL document CHEMBL1250519, “Design, synthesis, and biological evaluation of halogenated N-(2-(4-oxo-1-phenyl-1,3,8-triazaspiro[4.5]decan-8-yl)ethyl)benzamides: discovery of an isoform-selective small molecule phospholipase D2 inhibitor” (J Med Chem, 2010).

Assays:
[1] = organism: Homo sapiens; experiment: Selectivity ratio of IC50 for human PLD1 to IC50 for human GST-tagged PLD2A
[2] = in vivo; conditions: Sprague-Dawley, rat, iv, 1 mg/kg
[3] = in vivo; conditions: Sprague-Dawley, rat, iv, 1 mg/kg; remark: listed apart in the source
[4] = target: T1, Phospholipase D1 (Homo sapiens, UniProt Q13393)
T1 sequence (Q13393 whole entry): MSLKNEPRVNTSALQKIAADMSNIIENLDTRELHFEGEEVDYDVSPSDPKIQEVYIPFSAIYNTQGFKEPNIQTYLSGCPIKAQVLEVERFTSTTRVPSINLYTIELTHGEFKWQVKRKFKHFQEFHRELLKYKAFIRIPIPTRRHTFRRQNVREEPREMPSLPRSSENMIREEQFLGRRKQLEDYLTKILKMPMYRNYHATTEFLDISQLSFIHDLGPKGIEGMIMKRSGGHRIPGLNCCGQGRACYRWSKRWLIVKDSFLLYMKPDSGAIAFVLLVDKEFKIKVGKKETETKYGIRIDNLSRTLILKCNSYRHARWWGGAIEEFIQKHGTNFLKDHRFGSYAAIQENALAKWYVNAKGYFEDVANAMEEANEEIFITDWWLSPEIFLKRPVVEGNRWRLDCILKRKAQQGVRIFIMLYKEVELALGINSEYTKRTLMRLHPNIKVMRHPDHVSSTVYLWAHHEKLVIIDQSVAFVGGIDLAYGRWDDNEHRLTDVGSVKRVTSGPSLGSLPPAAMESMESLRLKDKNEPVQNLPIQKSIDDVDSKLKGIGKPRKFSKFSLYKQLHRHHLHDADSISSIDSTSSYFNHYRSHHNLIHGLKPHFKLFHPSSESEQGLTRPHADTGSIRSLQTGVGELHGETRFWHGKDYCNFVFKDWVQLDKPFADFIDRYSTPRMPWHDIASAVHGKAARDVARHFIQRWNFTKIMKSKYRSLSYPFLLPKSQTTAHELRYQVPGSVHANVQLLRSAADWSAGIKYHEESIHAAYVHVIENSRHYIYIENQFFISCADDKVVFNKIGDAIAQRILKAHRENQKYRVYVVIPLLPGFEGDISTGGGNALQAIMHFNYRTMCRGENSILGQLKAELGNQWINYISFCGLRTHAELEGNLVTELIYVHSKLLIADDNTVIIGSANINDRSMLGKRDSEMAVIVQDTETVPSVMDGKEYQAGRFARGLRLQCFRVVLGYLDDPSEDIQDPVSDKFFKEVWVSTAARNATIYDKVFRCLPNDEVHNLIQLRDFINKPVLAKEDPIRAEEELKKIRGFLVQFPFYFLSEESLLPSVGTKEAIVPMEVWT

Structure (SMILES) | Selectivity ratio [1] | Vd [2] [L/kg] | clearance [3] [mL/min/kg] | IC50 [4] [µM]
O=C(NCCN1CCC2(CC1)C(=O)NCN2c1ccccc1)c1ccc2ccccc2c1 | 9 | – | – | –
C[C@@H](CN1CCC2(CC1)C(=O)NCN2c1ccccc1)NC(=O)c1ccc2ccccc2c1 | 40 | – | – | –
O=C(NCCN1CCC2(CC1)C(=O)NCN2c1cccc(F)c1)c1ccc2ccccc2c1 | – | 8.1 | 61.5 | –
O=C(NCCN1CCC2(CC1)C(=O)NCN2c1cccc(F)c1)c1ccc(F)cc1 | 1.8 | – | – | 12
